This passage reports EC50 results from patent US12201633B2, “Compounds and methods for treatment of visceral pain” (Arena Pharmaceuticals, Inc., priority 2017, dated 2025).

By UniProt entry, the sequences of proteins in these tests, tags left out.
UniProt P34972, whole entry, looked up: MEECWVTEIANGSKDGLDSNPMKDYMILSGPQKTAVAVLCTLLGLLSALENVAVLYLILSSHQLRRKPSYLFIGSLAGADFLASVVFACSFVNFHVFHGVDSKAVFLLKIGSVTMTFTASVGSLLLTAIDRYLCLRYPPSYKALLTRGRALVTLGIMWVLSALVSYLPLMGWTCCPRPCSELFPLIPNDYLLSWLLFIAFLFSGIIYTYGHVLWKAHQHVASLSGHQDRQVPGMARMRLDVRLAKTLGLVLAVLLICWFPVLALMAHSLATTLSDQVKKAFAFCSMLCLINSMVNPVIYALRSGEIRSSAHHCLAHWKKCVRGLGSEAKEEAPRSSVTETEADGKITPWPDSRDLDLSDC

In general, EC50 refers to the concentration at which the effect is half-maximal.

The target in the experiment is human CB2 receptor (Homo sapiens, UniProt P34972). Nature of the experiment: HTRF assay for direct cAMP measurement, CB2. The class given is cell-based. The note with it: read-out: EC50 hCB2, CHO-K1 cells, Table A-2. In general terms: TR-FRET usually uses a lanthanide donor and a delayed reading to cut background.

Regarding `O=C(NC1(C(F)(F)F)CC1)c1nn(-c2c[n+]([O-])ccn2)c2c1C[C@@H]1C[C@H]21` [Compound 764, (1aS,5aS)-2-(4-Oxy-pyrazin-2-yl)-1a,2,5,5a-tetrahydro-1H-2,3-diaza-cyclopropa[a]pentalene-4-carboxylic acid (1-trifluoromethyl-cyclopropyl)-amide], the EC50 is 0.5 nM.
